Source: patent publication US11731934B2, “HDAC inhibitor compounds and methods of treatment” (University of Florida Research Foundation, Inc., priority 2014, dated 2023)

Columns and labels:
[1] = system: MDA-MB-231 cells; test: Cell cycle analysis by FACS; type: cell-based; settings: 24 h
[2] = system: Ad-MLP-Luc reporter in HCT116 cell line; test: Ad-MLP-Luc luciferase reporter activation assay; type: cell-based; settings: HCT116, compared to Ad-E2-Luc reporter
[3] = system: HCT116 cells; test: H3K18ac after 6 h pulse treatment and drug washout; type: cell-based; settings: 6 h exposure then washout
[4] = system: MDA-MB-231 cells; settings: UF010 at 1 μM

**Q.** Which results are given for `O=C(CCCCCCC(=O)Nc1ccccc1)NO` [SAHA, vorinostat]?
**A.** Cell cycle effect ([1]; 1 μM): inhibited G1/S progression; Cell cycle effect ([1]; 10 μM): induced a strong G2/M block; Ad-MLP-Luc reporter activity [2]: dramatically increased in a dose-dependent manner; Persistence of induced histone acetylation (H3K18ac) after drug addition [3]: quickly reduced to normal levels upon the drug removal; Time to induction of histone acetylation (H3K18ac) [3]: ≤ 6 h; Cell migration to the denuded areas [4]: did not significantly affect this phenotype
